The text below walks through data of patent US20040053206A1 (DYAX, published 2004).

What all share (test): protease inhibition, apparent Ki (Ki,app)
For experiment [1], the target named is human plasma kallikrein (human) (UniProt P03952).
Experiment [2] concerns the target human pancreatic chymotrypsin (human) (UniProt P17538).
For experiment [3], the target named is porcine pancreatic kallikrein (porcine) (UniProt P00752).
Experiment [4] addresses human neutrophil elastase (human) (UniProt P08246).
Experiment [5] deals with human C1r, activated (human) (UniProt P00736).
A further experiment concerns the target human plasmin (human) (UniProt P00747).

In the case of aprotinin (from UniProt P00974 36-93), the Ki in experiment [1] amounted to 30 nM; in experiment [2], 730 nM; in experiment [3], 0.55 nM.

Regarding “aprotinin (from UniProt P00974 36-93) (other; other documents disagree on this pair)”, the Ki amounted to 1700 nM in experiment [4], 10000 nM in experiment [5] and 0.894 nM with human plasmin (human).
